These results are taken from patent publication US10000483B2, “Bone marrow on X chromosome kinase (BMX) inhibitors and uses thereof” (Dana-Farber Cancer Institute, Inc., priority 2012, dated 2018).

Protein sequences, listed by entry. Tags and fused reporters are not part of them. Residues count along the entry.
UniProt P00533, 25-1210 T790M: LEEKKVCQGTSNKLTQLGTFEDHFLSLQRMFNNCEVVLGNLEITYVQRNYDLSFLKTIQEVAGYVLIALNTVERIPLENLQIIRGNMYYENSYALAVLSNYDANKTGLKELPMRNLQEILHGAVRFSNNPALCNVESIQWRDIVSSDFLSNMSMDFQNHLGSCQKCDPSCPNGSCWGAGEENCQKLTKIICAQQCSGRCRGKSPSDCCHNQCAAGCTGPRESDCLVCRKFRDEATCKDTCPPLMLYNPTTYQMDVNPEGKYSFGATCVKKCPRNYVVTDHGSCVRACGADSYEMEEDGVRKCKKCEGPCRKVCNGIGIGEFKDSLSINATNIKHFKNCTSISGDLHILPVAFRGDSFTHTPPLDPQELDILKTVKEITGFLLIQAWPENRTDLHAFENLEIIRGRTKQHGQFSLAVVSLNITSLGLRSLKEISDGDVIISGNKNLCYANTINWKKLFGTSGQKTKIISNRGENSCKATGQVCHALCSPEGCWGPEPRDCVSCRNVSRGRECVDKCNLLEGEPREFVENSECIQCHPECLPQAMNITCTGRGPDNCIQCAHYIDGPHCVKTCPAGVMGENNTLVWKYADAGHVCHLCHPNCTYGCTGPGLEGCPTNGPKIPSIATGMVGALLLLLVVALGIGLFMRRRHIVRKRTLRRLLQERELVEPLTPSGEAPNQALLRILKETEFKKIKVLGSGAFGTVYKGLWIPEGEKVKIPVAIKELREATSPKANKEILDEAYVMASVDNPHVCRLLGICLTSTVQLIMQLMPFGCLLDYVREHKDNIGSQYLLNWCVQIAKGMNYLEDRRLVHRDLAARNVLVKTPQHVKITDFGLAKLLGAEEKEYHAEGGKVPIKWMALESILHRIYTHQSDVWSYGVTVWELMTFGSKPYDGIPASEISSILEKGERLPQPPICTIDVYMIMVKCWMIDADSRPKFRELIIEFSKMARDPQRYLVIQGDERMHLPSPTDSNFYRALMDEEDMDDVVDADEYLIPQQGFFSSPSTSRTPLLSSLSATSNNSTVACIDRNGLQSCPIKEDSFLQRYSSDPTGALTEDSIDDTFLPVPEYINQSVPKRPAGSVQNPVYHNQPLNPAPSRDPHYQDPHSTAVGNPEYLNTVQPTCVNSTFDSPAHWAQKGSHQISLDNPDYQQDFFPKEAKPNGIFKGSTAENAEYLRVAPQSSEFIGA

The test system of experiment [1] is TEL-JAK3 transformed Ba/F3 cells. Briefly: cells. As to conditions: Mus musculus, BaF3, read-out: GI50, TEL-JAK3.
For a further experiment, the target named is EGFR(T790M) (Homo sapiens (Human), UniProt P00533, T790M). Briefly: Invitrogen Select Screening in vitro kinase assay. It is filed as biochemical.

Each structure is given as a SMILES string.

For orientation: GI50 means the concentration at which growth is held to half of that of the control. In general, IC50 refers to the point on the concentration scale where inhibition reaches its midpoint. High values mean lower potency, low ones higher potency. Regarding `C=CC(=O)Nc1cc(-n2c(=O)ccc3cnc4ccc(-c5ccc(NS(C)(=O)=O)cc5)cc4c32)ccc1C` [I-14], the GI50 in experiment [1] came out at 7.98 µM. Besides, the IC50 against EGFR(T790M) was 4.28 µM.
